Test [1] has as its system thapsigargin-induced IFN-g production in human whole blood. The format is cell-based. The following applies: read-out: Analogue Activity (IC50) WB/IFNg.
Test [2] relates to thapsigargin-induced IL-2 production in human whole blood. The note with it: read-out: Analogue Activity (IC50) WB/IL-2.
Test [3] has as its target T1, human Kv1.3 (Homo sapiens, UniProt P22001). As to the kind of experiment: cell-based. The arrangement: expressed in transfected cells.
In test [4] the target is T1, human Kv1.3. As to the kind of experiment: cell-based.
The target of test [5] is T2, human Kv1.1 (Homo sapiens, UniProt Q09470).
T2 construct: expressed in transfected cells; host or cells: HEK293
In words: cell-based. The test is classed as cell-based.

Chains of the proteins cited; added tags and fusions are not shown.
UniProt P22001, whole entry: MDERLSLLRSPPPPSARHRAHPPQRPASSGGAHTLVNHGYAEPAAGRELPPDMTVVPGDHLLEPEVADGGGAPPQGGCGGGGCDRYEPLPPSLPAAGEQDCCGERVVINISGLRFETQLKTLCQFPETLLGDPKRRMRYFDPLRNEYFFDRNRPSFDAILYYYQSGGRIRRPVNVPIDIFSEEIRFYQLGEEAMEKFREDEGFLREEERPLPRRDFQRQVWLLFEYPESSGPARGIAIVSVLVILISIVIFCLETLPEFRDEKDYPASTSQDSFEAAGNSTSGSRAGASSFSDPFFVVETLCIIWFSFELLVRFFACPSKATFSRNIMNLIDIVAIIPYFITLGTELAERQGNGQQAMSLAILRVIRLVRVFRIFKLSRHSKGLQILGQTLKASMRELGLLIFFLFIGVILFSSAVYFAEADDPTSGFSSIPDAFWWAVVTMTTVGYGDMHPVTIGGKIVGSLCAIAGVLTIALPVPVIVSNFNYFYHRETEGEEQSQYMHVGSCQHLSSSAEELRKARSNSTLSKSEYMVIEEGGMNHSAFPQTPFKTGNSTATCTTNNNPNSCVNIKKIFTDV
UniProt Q09470, whole entry: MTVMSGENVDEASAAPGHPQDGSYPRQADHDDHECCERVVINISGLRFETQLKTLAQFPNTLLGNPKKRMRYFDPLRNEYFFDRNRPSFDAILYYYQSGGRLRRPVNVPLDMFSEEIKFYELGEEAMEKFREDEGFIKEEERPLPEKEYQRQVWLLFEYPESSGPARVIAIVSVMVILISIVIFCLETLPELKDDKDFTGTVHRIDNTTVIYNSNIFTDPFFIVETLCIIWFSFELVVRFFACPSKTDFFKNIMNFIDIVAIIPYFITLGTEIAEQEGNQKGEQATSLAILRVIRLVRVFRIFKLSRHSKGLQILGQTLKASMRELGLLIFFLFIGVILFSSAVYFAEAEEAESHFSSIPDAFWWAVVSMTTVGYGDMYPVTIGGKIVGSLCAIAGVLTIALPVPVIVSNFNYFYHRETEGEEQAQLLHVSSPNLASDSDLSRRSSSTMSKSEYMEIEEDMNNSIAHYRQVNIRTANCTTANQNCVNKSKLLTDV

Test [6] deals with T3, human Kv1.3 (CHO) (Homo sapiens, UniProt P22001).
T3 construct: expressed in transfected cells
As to the kind of experiment: cell-based.

The target of test [7] is T4, human Kv1.1 (HEK293) (Homo sapiens, UniProt Q09470).
T4 construct: expressed in transfected cells; host or cells: HEK293
In words: cell-based.

Results on 5 compounds are retold here after patent publication US7820623B2 (priority 2006, dated 2010).

Read-outs that look alike come from different tables or passages of the source.

For `CC[C@H](C)[C@@H]1NC(=O)[C@H](CCCCN)NC(=O)[C@@H](NC(=O)[C@H](CCCCN)NC(=O)[C@@H](NC(=O)[C@H](CC(N)=O)NC(=O)[C@@H](NC(=O)[C@@H](NC(=O)[C@@H](NC(=O)CN)C(C)C)[C@@H](C)CC)[C@@H](C)CC)C(C)C)CSSC[C@@H]2NC(=O)[C@H](CCCCN)NC(=O)CNC(=O)[C@H](Cc3ccccc3)NC(=O)[C@H](CCCNC(=N)N)NC(=O)[C@H](CCSC)NC(=O)CNC(=O)[C@H](C)NC(=O)[C@H](CCCCN)NC(=O)[C@H](CCCCN)NC(=O)[C@@H]3CSSC[C@@H](C(=O)N[C@H](C(=O)N4CCC[C@H]4C(=O)N[C@@H](CCCCN)C(=O)O)[C@@H](C)O)NC(=O)[C@H](Cc4c[nH]cn4)NC(=O)[C@H](CSSC[C@H](NC(=O)[C@H](CCC(N)=O)NC(=O)[C@H](CCCNC(=N)N)NC(=O)[C@H](Cc4cccc5ccccc45)NC1=O)C(=O)N[C@@H](CC(C)C)C(=O)N[C@@H](CCC(=O)O)C(=O)N1CCC[C@H]1C(=O)N3)NC(=O)[C@H](CCCCN)NC(=O)CNC(=O)[C@H](CC(N)=O)NC(=O)[C@H](CCSC)NC2=O` [S11Nal], the IC50 in test [1] was determined as 17.9 nM; in test [2], 23.9 nM. The “Kv1.3 Selectivity (= Kv1.1/Kv.3 IC50)” value in test [3] stood at 57.

For the compound `CC[C@H](C)[C@@H]1NC(=O)[C@H](CCCCN)NC(=O)[C@@H](NC(=O)[C@H](CCCCN)NC(=O)[C@@H](NC(=O)[C@H](CC(N)=O)NC(=O)[C@@H](NC(=O)[C@@H](NC(=O)[C@@H](NC(=O)CN)C(C)C)[C@@H](C)CC)[C@@H](C)CC)C(C)C)CSSC[C@@H]2NC(=O)[C@H](CCCCN)NC(=O)CNC(=O)[C@H](Cc3ccccc3)NC(=O)[C@H](CCCNC(=N)N)NC(=O)[C@H](CCSC)NC(=O)CNC(=O)[C@H](C)NC(=O)[C@H](CCCCN)NC(=O)[C@H](CCCCN)NC(=O)[C@@H]3CSSC[C@@H](C(=O)N[C@H](C(=O)N4CCC[C@H]4C(=O)N[C@@H](CCCCN)C(=O)O)[C@@H](C)O)NC(=O)[C@H](Cc4c[nH]cn4)NC(=O)[C@H](CSSC[C@H](NC(=O)[C@H](CCC(N)=O)NC(=O)[C@H](CCCNC(=N)N)NC(=O)[C@H](CO)NC1=O)C(=O)N[C@@H](CC(C)C)C(=O)N[C@@H](CCC(=O)O)C(=O)N1CCC[C@H]1C(=O)N3)NC(=O)[C@H](CCCCN)NC(=O)CNC(=O)[C@H](CC(N)=O)NC(=O)[C@H](CCSC)NC2=O` [Synthetic OSK1], in test [4], the IC50 was 0.039 nM and the hKv1.1/hKv1.3 selectivity ratio is given as 4.

In the case of `CC[C@H](C)[C@@H]1NC(=O)[C@H](CCCCN)NC(=O)[C@@H](NC(=O)[C@H](CCCCN)NC(=O)[C@@H](NC(=O)[C@H](CC(N)=O)NC(=O)[C@@H](NC(=O)[C@@H](NC(=O)[C@@H](NC(=O)CN)C(C)C)[C@@H](C)CC)[C@@H](C)CC)C(C)C)CSSC[C@@H]2NC(=O)[C@H](CCCCN)NC(=O)CNC(=O)[C@H](Cc3ccccc3)NC(=O)[C@H](CCCNC(=N)N)NC(=O)[C@H](CCSC)NC(=O)CNC(=O)[C@H](C)NC(=O)[C@H](CCCCN)NC(=O)[C@H](CCCCN)NC(=O)[C@@H]3CSSC[C@@H](C(=O)N[C@H](C(=O)N4CCC[C@H]4C(=O)N[C@@H](CCCCN)C(=O)O)[C@@H](C)O)NC(=O)[C@H](Cc4c[nH]cn4)NC(=O)[C@H](CSSC[C@H](NC(=O)[C@H](CCC(N)=O)NC(=O)[C@H](CCCNC(=N)N)NC(=O)[C@H](CO)NC1=O)C(=O)N[C@@H](CC(C)C)C(=O)N[C@@H](CCC(=O)O)C(=O)N1CCC[C@H]1C(=O)N3)NC(=O)[C@H](CCCCN)NC(=O)CNC(=O)[C@H](CC(N)=O)NC(=O)[C@H](CCSC)NC2=O` [wild-type], the “Kv1.3 Selectivity (= Kv1.1/Kv.3 IC50)” value in test [3] came out at 5. Also, the IC50 in test [3] (read-out: Kv1.3 (IC50)) turned out to be 0.039 nM.

Turning to `CC[C@H](C)[C@@H]1NC(=O)[C@H](CCCCN)NC(=O)[C@@H](NC(=O)[C@H](CCCCN)NC(=O)[C@@H](NC(=O)[C@H](CC(N)=O)NC(=O)[C@@H](NC(=O)[C@@H](NC(=O)[C@@H](NC(=O)CN)C(C)C)[C@@H](C)CC)[C@@H](C)CC)C(C)C)CSSC[C@@H]2NC(=O)[C@H](CCCCN)NC(=O)CNC(=O)[C@H](Cc3ccccc3)NC(=O)[C@H](CCCNC(=N)N)NC(=O)[C@H](CCSC)NC(=O)CNC(=O)[C@H](C)NC(=O)[C@H](CCCCN)NC(=O)[C@H](CCCCN)NC(=O)[C@@H]3CSSC[C@@H](C(=O)N[C@H](C(=O)N4CCC[C@H]4C(=O)N[C@@H](CCCCN)C(=O)O)[C@@H](C)O)NC(=O)[C@H](Cc4cccc5ccccc45)NC(=O)[C@H](CSSC[C@H](NC(=O)[C@H](CCC(N)=O)NC(=O)[C@H](CCCNC(=N)N)NC(=O)[C@H](CO)NC1=O)C(=O)N[C@@H](CC(C)C)C(=O)N[C@@H](CCC(=O)O)C(=O)N1CCC[C@H]1C(=O)N3)NC(=O)[C@H](CCCCN)NC(=O)CNC(=O)[C@H](CC(N)=O)NC(=O)[C@H](CCSC)NC2=O` [H34Nal], the IC50 in test [5] was 29.2 nM; in test [6] it was 0.0603 nM; in test [7], more than 3.33 nM; in test [1], 6.19 nM; in test [2] it was 3.32 nM; in test [3] it was 0.215 nM. In addition, the “Kv1.3 Selectivity (= Kv1.1/Kv.3 IC50)” value in test [3] turned out to be 136.

With `CC[C@H](C)[C@@H]1NC(=O)[C@H](CCCCN)NC(=O)[C@@H](NC(=O)[C@H](CCCCN)NC(=O)[C@@H](NC(=O)[C@H](CC(N)=O)NC(=O)[C@@H](NC(=O)[C@@H](NC(=O)[C@@H](NC(=O)CN)C(C)C)[C@@H](C)CC)[C@@H](C)CC)C(C)C)CSSC[C@@H]2NC(=O)[C@H](CCCCN)NC(=O)CNC(=O)[C@H](Cc3ccccc3)NC(=O)[C@H](CCCNC(=N)N)NC(=O)[C@H](CCSC)NC(=O)CNC(=O)[C@H](C)NC(=O)[C@H](CCCCN)NC(=O)[C@H](CCCCN)NC(=O)[C@@H]3CSSC[C@@H](C(=O)N[C@H](C(=O)N4CCC[C@H]4C(=O)N[C@@H](CCCCN)C(=O)O)[C@@H](C)O)NC(=O)[C@H](Cc4c[nH]cn4)NC(=O)[C@H](CSSC[C@H](NC(=O)[C@H](CCC(N)=O)NC(=O)[C@H](CCCNC(=N)N)NC(=O)[C@H](CO)NC1=O)C(=O)N[C@@H](CC(C)C)C(=O)N[C@@H](CCC(=O)O)C(=O)N1CCC[C@H]1C(=O)N3)NC(=O)[C@H](CCCCN)NC(=O)CNC(=O)[C@H](CC(N)=O)NC(=O)[C@H](CCSC)NC2=O` [OSK1, reference compound], in test [5], the “Kv1.1 IC50 relative to Kv1.3 IC50” value was 5 fold and the “selectivity ratio of Kv1.1/Kv1.3” value is on record as 4 fold.
